{
  "sequences": {"note": "Chains of the proteins cited; added tags and fusions are not shown. Lines headed by an entry give the natural chain unless they say otherwise; changes in a name come on top. Residues count along the entry.", "UniProt A0A286XTF2, 1-366": "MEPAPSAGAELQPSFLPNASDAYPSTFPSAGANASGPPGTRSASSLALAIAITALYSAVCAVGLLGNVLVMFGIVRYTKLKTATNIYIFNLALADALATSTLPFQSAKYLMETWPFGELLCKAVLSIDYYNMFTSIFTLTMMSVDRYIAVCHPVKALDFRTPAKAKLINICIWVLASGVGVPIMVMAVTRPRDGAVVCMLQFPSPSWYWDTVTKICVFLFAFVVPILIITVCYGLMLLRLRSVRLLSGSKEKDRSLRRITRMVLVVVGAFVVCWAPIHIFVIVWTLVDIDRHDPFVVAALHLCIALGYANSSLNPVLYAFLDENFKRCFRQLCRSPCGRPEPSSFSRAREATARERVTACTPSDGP"},
  "source": "patent US9932349B2",
  "about": "(priority 2000, dated 2018)",
  "biological_target": "T1, δ opioid receptor (Cavia porcellus, UniProt A0A286XTF2)",
  "T1 construct": "determined in guinea pig brain cells; from tissue; host or cells: guinea pig brain",
  "experiment": "biochemical",
  "format": "binding, guinea pig",
  "conditions": "[3H]Naltrindole (δ)",
  "data": [
    {"smiles": "Oc1ccc2c3c1O[C@H]1c4[nH]c5ccccc5c4C[C@@]4(O)[C@@H](C2)N(CC2CC2)CC[C@]314", "note": "[naltrindole (3-OH), Naltrindole, reference compound]", "values": [
      {"measurement": "Ki", "result": "0.13 ± 0.02", "unit": "nM"}
    ]}
  ]
}
